The list shows a part of the results, in another mix than the full data. Results filed as inconclusive are left out. The source made the active and inactive calls.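 Rule for the calls: active = thallium flux slope beyond 3 SD from same-plate DMSO control mean in most replicates, usually higher, sometimes lower; inconclusive = repeat tests gave conflicting results; inactive = no significant difference from controls in most replicates.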
Each compound was assayed against Solute carrier family 12 member 5 (Homo sapiens) (UniProt Q9H2X9) (assay: modulation of KCC2 thallium flux in HEK cells – cell-based, ouabain, retest, confirmation (AID 1717;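 note: slope of initial-normalized fluorescence between seconds 10 and 20 after thallium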)). Details: HEK293-KCC2, thallium flux FluoZin2 fluorescence, at 10 µM, bidirectional: low = inhibitor, high = activator.

Amino acid sequences for entries named in this document (tags omitted).
UniProt Q9H2X9, whole entry: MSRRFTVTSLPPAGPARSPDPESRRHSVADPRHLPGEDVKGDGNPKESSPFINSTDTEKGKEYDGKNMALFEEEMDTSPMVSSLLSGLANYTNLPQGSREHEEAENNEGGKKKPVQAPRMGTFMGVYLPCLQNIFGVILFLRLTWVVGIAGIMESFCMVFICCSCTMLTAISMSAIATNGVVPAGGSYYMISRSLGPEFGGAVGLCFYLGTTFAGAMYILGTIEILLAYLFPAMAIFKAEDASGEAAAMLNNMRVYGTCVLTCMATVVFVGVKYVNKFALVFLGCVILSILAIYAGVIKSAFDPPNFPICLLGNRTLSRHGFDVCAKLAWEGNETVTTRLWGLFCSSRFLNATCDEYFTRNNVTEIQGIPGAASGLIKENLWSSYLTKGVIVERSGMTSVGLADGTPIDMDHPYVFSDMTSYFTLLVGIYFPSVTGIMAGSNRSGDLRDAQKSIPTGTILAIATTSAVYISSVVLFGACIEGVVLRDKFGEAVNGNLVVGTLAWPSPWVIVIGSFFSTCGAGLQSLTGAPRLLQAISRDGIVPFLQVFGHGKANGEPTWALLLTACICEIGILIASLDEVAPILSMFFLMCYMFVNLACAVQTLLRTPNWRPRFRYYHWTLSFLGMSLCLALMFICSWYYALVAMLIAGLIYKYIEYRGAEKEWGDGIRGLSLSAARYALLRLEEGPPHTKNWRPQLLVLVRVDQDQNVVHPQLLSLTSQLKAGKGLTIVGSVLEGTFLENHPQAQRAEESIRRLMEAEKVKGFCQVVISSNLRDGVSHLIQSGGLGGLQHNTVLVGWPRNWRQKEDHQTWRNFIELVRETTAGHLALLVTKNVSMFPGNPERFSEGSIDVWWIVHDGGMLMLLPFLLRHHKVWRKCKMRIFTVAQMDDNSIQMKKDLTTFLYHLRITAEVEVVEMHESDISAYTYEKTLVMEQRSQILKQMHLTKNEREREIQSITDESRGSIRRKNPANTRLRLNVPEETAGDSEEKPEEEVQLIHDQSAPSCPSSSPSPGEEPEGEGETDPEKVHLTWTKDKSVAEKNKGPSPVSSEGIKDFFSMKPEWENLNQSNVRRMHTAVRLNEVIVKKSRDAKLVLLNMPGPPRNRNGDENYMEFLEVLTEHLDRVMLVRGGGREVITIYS

Structure (SMILES) | raw Tl+ flux slope (below DMSO = inhibition, above = activation)
CP(=O)(Nc1ccccc1)Oc1ccc(F)cc1 (stereo unspecified) | inactive: 0.0642

Reference: PubChem BioAssay AID1717 (Vanderbilt High Throughput Screening Facility, 2009)
